Article PMC7723054
Some of the results follow.

T1: LIN28A (human?, UniProt Q9H9Z2 1-209)
T1 sequence: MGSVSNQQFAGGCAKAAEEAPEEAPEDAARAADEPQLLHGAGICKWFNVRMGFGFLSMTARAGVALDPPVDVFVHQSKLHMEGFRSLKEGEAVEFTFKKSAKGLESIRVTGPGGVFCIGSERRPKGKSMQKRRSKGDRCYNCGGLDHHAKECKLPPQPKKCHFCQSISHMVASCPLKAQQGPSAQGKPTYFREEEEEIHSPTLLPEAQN

T2: CIRBP (Homo sapiens, UniProt Q14011 1-172)
T2 sequence: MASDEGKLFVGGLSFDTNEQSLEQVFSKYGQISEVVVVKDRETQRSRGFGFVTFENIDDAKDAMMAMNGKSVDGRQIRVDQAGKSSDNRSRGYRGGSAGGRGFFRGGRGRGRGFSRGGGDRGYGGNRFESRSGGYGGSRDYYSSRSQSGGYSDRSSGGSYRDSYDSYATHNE

T3: DHX36 (Homo sapiens, UniProt Q9H2U1 1-1008)
T3 sequence: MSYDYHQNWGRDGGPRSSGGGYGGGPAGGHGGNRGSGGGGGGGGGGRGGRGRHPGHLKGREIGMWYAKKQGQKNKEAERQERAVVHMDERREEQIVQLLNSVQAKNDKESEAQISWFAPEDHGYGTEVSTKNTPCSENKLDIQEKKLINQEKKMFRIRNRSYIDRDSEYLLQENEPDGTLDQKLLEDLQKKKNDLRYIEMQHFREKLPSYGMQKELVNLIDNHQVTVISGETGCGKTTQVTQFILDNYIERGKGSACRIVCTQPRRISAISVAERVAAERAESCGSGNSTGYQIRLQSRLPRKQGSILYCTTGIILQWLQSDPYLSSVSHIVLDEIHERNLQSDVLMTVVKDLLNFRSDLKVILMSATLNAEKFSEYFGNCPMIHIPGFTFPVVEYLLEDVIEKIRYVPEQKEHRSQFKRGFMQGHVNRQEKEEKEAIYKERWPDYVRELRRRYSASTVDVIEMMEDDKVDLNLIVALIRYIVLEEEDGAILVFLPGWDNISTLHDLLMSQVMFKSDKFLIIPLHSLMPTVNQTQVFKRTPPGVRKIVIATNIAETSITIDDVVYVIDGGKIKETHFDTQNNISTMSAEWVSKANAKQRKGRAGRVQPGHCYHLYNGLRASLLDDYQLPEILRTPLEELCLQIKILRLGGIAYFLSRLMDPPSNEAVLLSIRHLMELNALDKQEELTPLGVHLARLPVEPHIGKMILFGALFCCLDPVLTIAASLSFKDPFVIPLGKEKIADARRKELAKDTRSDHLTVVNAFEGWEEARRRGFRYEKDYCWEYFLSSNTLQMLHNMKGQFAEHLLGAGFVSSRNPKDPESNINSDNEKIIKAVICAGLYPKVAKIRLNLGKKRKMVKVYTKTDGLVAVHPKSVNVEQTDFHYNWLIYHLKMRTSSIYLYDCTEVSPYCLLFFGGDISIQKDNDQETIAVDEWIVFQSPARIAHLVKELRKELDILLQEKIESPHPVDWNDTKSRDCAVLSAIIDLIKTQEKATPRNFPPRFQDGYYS

B1: hsa-mir-520e (structured_RNA)
RNA: GGGAACAGCGAAGUUGGGUUAGUGAAACGGUGUACGAAGUUUCAGCGUUUCUGUUGUCUGAAAGGAAAGAAAGGCUGAAGCUUCGUGCAC
B2: hsa-mir-3141 (structured_RNA)
RNA: GGGAAAAGACCACGGGCGUAAUGUUGUAGGUGUACGAAGUUUCAGCAGGAGGGUCCGCUGAAGCUUCGUGCAC
B3: hsa-mir-1236 (structured_RNA)
RNA: GGGAAUGUGAGUCAACUUCAAGGUACCCGGUGUACGAAGUUUCAGCGGGGAUGGACUGGAAGUGGGCAGCAUGGAGCUGACCUUCAUCAUGGCUUGGCCAACAUAAUGCCUCGCUGAAGCUUCGUGCAC
B4: hsa-mir-6081 (structured_RNA)
RNA: GGGAAAGAAGCGUUCGACCCUACCGUGCGGUGUACGAAGUUUCAGCCCCGUAGGACACCGAGGCUUAUGAAUAGGAGCUGAAGCUUCGUGCAC
B5: PARIS_ID38 (structured_RNA)
RNA: GGGACGCUGUCCAGUCGGGUUUAUCUCAGGUGUACGAAGUUUCAGCCAUUUUCUGGCUGUGGAUGUACUAAAAUGUAUCCUAUUAUUCUCUGCCCUAAAAUGGCUGAAGCUUCGUGCAC
B6: hsa-mir-548am (structured_RNA)
RNA: GGGCACCUGAUGAACUCGGGAACCAUGGGGUGUACGAAGUUUCAGCUUUGCCGUCGAAAAUAAUGGCAAAGCUGAAGCUUCGUGCAC
B7: hsa-mir-4769 (structured_RNA)
RNA: GGGAACAGCCGUGCACACUAGACUUGCUGGUGUACGAAGUUUCAGCAUGAGCUAAAAAUCCCCAAGCUCUGCUGAAGCUUCGUGCAC
B8: hsa-mir-4675 (structured_RNA)
RNA: GGGAGGUAAAUUACACAGACCCUGUCCCGGUGUACGAAGUUUCAGCCCCUGGUCAGACUCUCCGGGGGCUGAAGCUUCGUGCAC
B9: hsa-mir-4515 (structured_RNA)
RNA: GGGACCUGGCCUGAGGCUGACUUACUUGGGUGUACGAAGUUUCAGCGCCCCAGGGCAGGGGCGCUGAAGCUUCGUGCAC
B10: hsa-mir-1193 (structured_RNA)
RNA: GGGACAGUCGGACUUCUAACGGAAUAUUGGUGUACGAAGUUUCAGCGUGCACUUCAUUUACGAUGUAGGCUGAAGCUUCGUGCAC
B11: hsa-mir-223 (structured_RNA)
RNA: GGGAACCCAAGUAGGCGUAACGUUACCAGGUGUACGAAGUUUCAGCAGUUGGACACUCCAUGUGGUAGAGUGUCGCUGAAGCUUCGUGCAC
B12: hsa-mir-3117 (structured_RNA)
RNA: GGGAACAAAACGGCGAGCACCGUUGAUAGGUGUACGAAGUUUCAGCAUAUAAGGGAAGGCAUUAUAGGCUGAAGCUUCGUGCAC

Experiments:
Test in all cases: FOREST: bead pull-down of RNA structure library v1, barcode microarray; U1A/LIN28A: 20 mM HEPES pH 7.5, 80 mM KCl, 20 mM NaCl, 10% glycerol, 2 mM DTT, 0.1 ug/uL BSA, 4 C; BG4/CIRBP/DHX36: 10 mM Tris-HCl pH 7.5, 100 mM KCl (or LiCl),; high values mean tight binding
U1A = U1A (Homo sapiens, UniProt P09012)
LIN28A = target: T1, LIN28A
CIRBP = target: T2, CIRBP
DHX36 = target: T3, DHX36

Row | Binder | binding signal (U1A) [z-score] | binding signal (LIN28A) [z-score] | binding signal (CIRBP) [z-score] | binding signal (DHX36) [z-score]
1 | B1 | 0.142 | 1.05 | 2.11 | 0.294
2 | B2 | 0.143 | 1.2 | 3.35 | 0.745
3 | B3 | 0.147 | 0.61 | -0.272 | 1.58
4 | B4 | 0.136 | -0.265 | -0.213 | -1.38
5 | B5 | 1.8 | 0.58 | -0.253 | -0.115
6 | B6 | 0.15 | -3.56 | -1.8 | -0.711
7 | B7 | 0.136 | 0.826 | -0.274 | 0.148
8 | B8 | 0.147 | -0.0237 | 0.28 | -0.0451
9 | B9 | 0.142 | -1.95 | -1.06 | -0.594
10 | B10 | 0.136 | 0.36 | 0.0517 | -0.0169
11 | B11 | 0.14 | -0.471 | -0.78 | -0.687
12 | B12 | 0.144 | -0.154 | -0.505 | -1.1
